{"source": "paper PMC5048338", "about": "“Discovery of 4,6-disubstituted pyrimidines as potent inhibitors of the heat shock factor 1 (HSF1) stress pathway and CDK9” (Medchemcomm, 2016)", "test_system": "U2OS cells", "test": "SRB cell growth inhibition assay", "type": "cell-based", "settings": "Homo sapiens, 96 h, read-out: SRB GI50"}
{"smiles": "CCc1cnn2c(NCc3ccc[n+]([O-])c3)cc(N3CCCC[C@H]3CCO)nc12", "note": "[Dinaciclib, dinaciclib]", "values": [{"measurement": "GI50", "value": 6, "unit": "nM"}]}
